The entries are a selection whose mix differs from that of the whole data set. The source made the active and inactive calls. Rule for the calls: active = hit-call score of the fitted dose curve at least 0.9, where 1 is the maximum; inactive = score below 0.9.
Assay: ATG_FoxO_CIS: Attagene CIS-FACTORIAL HepG2 Assay for human Forkhead box O (FoxO) (AID 2282943)
Details: HepG2 Attagene cis-reporter, FoxO element, mRNA; actives raise or lower the signal
Experimental: ATG_CIS is a cell-based, multiplexed-readout assay that uses HepG2, a human liver cell line, with measurements taken at 24 hours after chemical dosing in a 24-well plate.ATG_FoxO_CIS is one of 52 assay component(s) measured or calculated from the ATG_CIS assay. It is designed to make measurements of mRNA induction, a form of inducible reporter, as detected with fluorescence intensity signals by Reverse transcription polymerase chain reaction (RT-PCR) and Capillary electrophoresis technology.Data from the assay component ATG_FoxO_CIS was analyzed into 1 assay endpoint. This assay endpoint, ATG_FoxO_CIS, was analyzed with bidirectional fitting relative to DMSO as the negative control and baseline of activity. Using a type of inducible reporter, measures of mRNA for gain or loss-of-signal activity can be used to understand the reporter gene at the transcription factor-level as they relate to the gene FOXO1 and FOXO3. Furthermore, this assay endpoint can be referred to as a primary readout, because this assay has produced multiple assay endpoints where this one serves a reporter gene function. To generalize the intended target to other relatable targets, this assay endpoint is annotated to the dna binding intended target family, where the subfamily is forkhead box protein.
Human liver HepG2 cells are transiently transfected with multiple reporter transcription units (MRTUs) in 6-well plates using FuGene 6 reagent (Roche; 3 ml FuGene/1 mg DNA). The MRTU constructs are regulated by a cis-regulating element (promoter). […] A major difference between the CIS and TRANS system is that in CIS activities of endogenous TFs are measured, whereas the TRANS assay evaluates changes in activities of exogenous, chimeric NR-Gal4 proteins. […] At the end of 24 hour incubation, total RNA was isolated using TriZol reagent (Invitrogen). The isolated RNA is then reverse-transcribed using oligo(dT) primer and Mo-MLV reverse transcriptase (Invitrogen) with DNAse I (Ambion) treatment for 30 min. The one-tenth of the produced cDNA was amplified by PCR using Taq DNA polymerase (Invitrogen) and two reporter sequence-specific primers. The PCR products were fluorescently labeled by primer extension with 6-arboxyfluorescein (6-FAM) 5'-labeled reporter sequence-specific primer (2 min at 95 C, 20 s at 68 C and 10 min at 72 C) and these products were digested with 5U of HpaI (New England Biolabs) for 2h at 37 C. The fragments were purified using Qiaquick PCR columns (Qiagen), analyzed on an ABI 3130xL genetic analyzer (Applied Biosystems) with peak positions identified by using a set of X-rhodamine (ROX)-labeled MapMarker1000 molecular weight standards (BioVentures). The raw capillary electrophoresis data was processed using Attagraph software (Attagene).

Structure (SMILES) | outcome | AC50
O=P(Cl)(Oc1ccccc1)Oc1ccccc1 | inactive | –
O=[N+]([O-])c1ccc([N+](=O)[O-])cc1 | – | active: 160 µM
CC(C)OP(=S)(OC(C)C)SCCNS(=O)(=O)c1ccccc1 | inactive | –
CN(C(=O)Cc1cccc2occc12)[C@H]1CC[C@@]2(CCCO2)C[C@@H]1N1CCCC1 | inactive | –
O=[As]c1ccccc1 (configuration not stated) | – | active: 0.491 µM
CC(C)CCCCCCCOP(OCCCCCCCC(C)C)Oc1ccccc1 | inactive | –
CCCCC(CC)CO[P+](=O)OCC(CC)CCCC (configuration not stated) | inactive | –
O=[p+]1oc2ccccc2c2ccccc21 (configuration not stated) | inactive | –
O=C1C2CC=CCC2C(=O)N1SC(Cl)(Cl)C(Cl)Cl (configuration not stated) | inactive | –
O=C(Cl)OCCOC(=O)Cl | inactive | –
Cc1cc([N+](=O)[O-])cc([N+](=O)[O-])c1O | inactive | –
O=C(Cl)Oc1ccccc1 | inactive | –
ClP(Cl)c1ccccc1 | inactive | –
N#CSc1ccc([N+](=O)[O-])cc1[N+](=O)[O-] | inactive | –
CCCCOP(OCCCC)OCCCC | inactive | –
CCCCO[P+](=O)OCCCC | inactive | –
O=[P+](Oc1ccccc1)Oc1ccccc1 | inactive | –

— PubChem BioAssay (EPA / NIEHS)
